# Target: APOL1 (Homo sapiens, UniProt O14791)
# The chains behind the UniProt entries cited, without tags or fusion partners.
# UniProt O14791, whole entry: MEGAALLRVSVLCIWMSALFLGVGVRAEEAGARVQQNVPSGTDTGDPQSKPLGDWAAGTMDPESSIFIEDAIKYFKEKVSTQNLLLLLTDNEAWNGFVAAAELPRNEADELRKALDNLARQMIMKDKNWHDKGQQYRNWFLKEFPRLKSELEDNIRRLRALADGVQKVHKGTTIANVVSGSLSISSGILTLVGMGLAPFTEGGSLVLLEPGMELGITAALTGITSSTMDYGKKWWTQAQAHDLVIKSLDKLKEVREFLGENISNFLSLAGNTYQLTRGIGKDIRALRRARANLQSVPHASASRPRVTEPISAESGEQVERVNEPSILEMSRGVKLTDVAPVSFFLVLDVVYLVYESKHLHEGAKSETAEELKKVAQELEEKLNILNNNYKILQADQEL
# Assay: MultiTox-Fluor Multiplex Cytotoxicity Assay, tet-inducible APOL1 T-REx-HEK293 cells (G0, G1 or G2 clone not specified for Table 20)
# Settings: read-out: IP50 (i.e., IC50 for cell proliferation), tet-induced, 24 hours with compound, ratio of dead to live cells
# Procedure: Human embryonic kidney (HEK293) cell lines containing a tet-inducible expression system (T-REx™; Invitrogen, Carlsbad, CA) and Adeno-associated virus site 1 pAAVS1-Puro-APOL1 G0 or pAAVS1-Puro-APOL1 G1 or pAAVS1-Puro-APOL1 G2 Clones G0 DC2.13, G1 DC3.25, and G2 DC4.44 were grown in a T-225 flask at ˜90% confluency in cell growth media (DMEM, 10% Tet-free FBS, 2 mM L-glutamine, 100 Units/mL penicillin-streptomycin, 5 μg/mL blasticidin S HCl, 1 μg/mL puromycin dihydrochloride). Cells were washed with DPBS and then trypsinized to dissociate from the flask. Media was used to quench the trypsin, cells were then pelleted at 200 g and resuspended in fresh cell assay media (DMEM, 2% Tet-free FBS, 2 mM L-glutamine, 100 Units/mL penicillin-streptomycin). Cells were counted and diluted to 1.17×10^6 cells/mL. 20 μL of cells (23,400/well) were dispensed in every well of a 384-well Poly-D-Lysine coated plate using the Multidrop dispenser. The plates were then incubated at room temperature for one hour.
# Tetracycline is needed to induce APOL1 expression. 1 mg/mL tet stock in water was diluted to 250 ng/mL (5×) in cell assay media. 60 μL of cell assay media (no tet control) was dispensed in columns 1 and 24, and 60 μL of 5× tet in 384-PP-round bottom plate was dispensed in columns 2 to 23 with the Multidrop dispenser.
# Assay ready plates from the Global Compound Archive were ordered using template 384_APOL1Cell_DR10n2_50 uM_v3. Compounds were dispensed at 200 nL in DMSO. The final top concentration was 10 μM with a 10 point 3-fold dilution in duplicate in the MultiTox assay.
# 20 μL was transferred from the 5× tet plate to the ARP and mixed, then 5 μL of 5× tet and the compounds were transferred to the cell plate and mixed using the Bravo. The cell plate was placed in the humidified 37° C. 5% CO2 incubator for 24 hours.
# The MultiTox-Fluor Multiplex Cytotoxicity Assay was performed in accordance with the manufacturer's protocol. After cells were incubated with tet and compound for 24 hours, 25 μL of 1× MultiTox reagent was added to each well using the Multidrop dispenser; the plates were placed on a plate shaker (600 rpm) for 2 minutes, then centrifuged briefly and placed back in the 37° C. incubator for 30 minutes. The cell viability (excitation: 400 nm, emission: 486 nm) and cytotoxicity (excitation: 485 nm, emission: 535 nm) were read using the EnVision plate reader. A ratio of dead (cytotoxicity) to live (viability) cells was reported. Data was exported and analyzed in Genedata. Data was normalized using percent of control, no tet (100% viability), and 50 ng/mL tet treated (0% viability), and fit using Smart Fit settings in Genedata.
row,Structure (SMILES),IC50 [nM]
1,CCS(=O)(=O)N[C@H]1C[C@H](CN2CCC3(CC2)C(=O)N(C)c2ccc(Cl)cc23)C1,> 500
2,COC(=O)N[C@H]1C[C@@H](CN2CCC3(CC2)C(=O)N(C)c2ccc(Cl)cc23)C1,> 500
3,CN1C(=O)C2(CCN(C[C@H]3C[C@@H](NC(=O)c4cc(Cl)no4)C3)CC2)c2cc(Cl)ccc21,> 500
4,CN1C(=O)C2(CCN(C[C@H]3C[C@H](NC(=O)c4cc(C5CC5)no4)C3)CC2)c2cc(Cl)ccc21,> 500
5,CN1C(=O)C2(CCN(C[C@H]3C[C@@H](NC(=O)c4ccon4)C3)CC2)c2cc(Cl)ccc21,> 500

# Reference: patent US20250195483A1, “SPIRO PIPERIDINE DERIVATIVES AS INHIBITORS OF APOL1 AND METHODS OF USING SAME” (Vertex Pharmaceuticals Incorporated, priority 2022, published 2025)
